Test results published in PMC3656605 (Nature, 2012).

Protein sequences, listed by entry. Tags and fused reporters are not part of them. Lines headed by an entry give the natural chain unless they say otherwise; changes in a name come on top.
UniProt Q9GZT9: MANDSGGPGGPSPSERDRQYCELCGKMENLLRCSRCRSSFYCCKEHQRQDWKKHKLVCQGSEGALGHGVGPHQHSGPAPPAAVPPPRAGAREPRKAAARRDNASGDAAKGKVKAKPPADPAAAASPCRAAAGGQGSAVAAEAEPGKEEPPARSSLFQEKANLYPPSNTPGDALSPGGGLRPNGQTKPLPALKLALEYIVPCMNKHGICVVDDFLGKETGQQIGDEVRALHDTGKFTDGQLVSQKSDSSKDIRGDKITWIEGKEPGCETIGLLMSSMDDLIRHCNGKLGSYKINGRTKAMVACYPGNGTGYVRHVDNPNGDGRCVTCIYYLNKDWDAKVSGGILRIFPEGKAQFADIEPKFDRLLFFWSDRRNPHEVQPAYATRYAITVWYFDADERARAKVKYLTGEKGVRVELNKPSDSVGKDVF

Target: EglN1 (Homo sapiens, UniProt Q9GZT9)
Assay type: biochemical
Details: read-out: IC50, EglN1 inhibition; standard assay conditions, 10 μM 2-OG

pIC50: < 2.30
Structure (SMILES): O=C(O)CC[C@@H](O)C(=O)O [R-2HG, R-2-hydroxyglutarate]

pIC50: −log10 of the molar value.
